Data published in article PMC3898853.

Molecular target: TsUCH37^cat (catalytic UCH domain of Trichinella spiralis UCH37, residues 1-226) (Trichinella spiralis)

## UbAMC (ubiquitin aminomethylcoumarin) (from UniProt P0CG48 1-76)
  KM of UbAMC hydrolysis (Michaelis-Menten fit; 7 nM enzyme, 30°C): 1.08 µM
